Results on two compounds are retold here after publication PMC7823652 (Viruses, 2020).

The chains behind the UniProt entries cited, without tags or fusion partners.
UniProt O15527, whole entry: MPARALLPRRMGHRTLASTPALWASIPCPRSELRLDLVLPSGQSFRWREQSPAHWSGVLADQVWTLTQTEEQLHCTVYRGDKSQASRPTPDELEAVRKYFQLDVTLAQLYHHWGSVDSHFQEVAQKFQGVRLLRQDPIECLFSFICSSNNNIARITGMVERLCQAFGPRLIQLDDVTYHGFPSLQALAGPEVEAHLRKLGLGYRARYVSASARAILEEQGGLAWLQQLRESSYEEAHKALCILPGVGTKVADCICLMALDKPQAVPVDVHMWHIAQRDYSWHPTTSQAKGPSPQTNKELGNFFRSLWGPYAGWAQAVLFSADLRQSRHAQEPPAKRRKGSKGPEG

Read-outs that look alike come from different tables or passages of the source.

This experiment concerns the target hOGG1 (Homo sapiens, UniProt O15527). In words: hOGG1 IC50 (listed in supplementary data, method not described). The class given is biochemical.

One may read the IC50 as the concentration needed to halve the response being measured. Regarding `O=C(Nc1ccc(I)cc1)N1CCC(n2c(=O)[nH]c3cc(Cl)ccc32)CC1` [TH003289], the half-maximal inhibitory concentration (IC50) was 1620 nM.

Regarding `O=C(Nc1ccc(I)cc1)N1CCC(n2c(=O)[nH]c3cc(Cl)ccc32)CC1` [TH3289], the IC50 was 1620 nM. Moreover, half-maximal inhibition (screening data table) (IC50) required 1620 nM.
